Structures are written as SMILES. Only a part is listed here, and it is no random draw. Calls of active or inactive are those of the source.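 How the source made its calls: active means inhibition above about 55% (limit read from the data); inconclusive means no clear call, values can overlap the other calls; inactive means the rest.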

This assay is described as follows: LAMP-1 surface exposure blockers, TALL-104 cells – cell-based, flow cytometry, MLPCN library, primary screen (AID 651702). Particulars: TALL-104 LAMP-1 surface exposure, at 10 µM, stronger effect = higher value, cells stimulated with thapsigargin and PMA. (In flow cytometry, cells or beads pass a laser one at a time.)
For `O=[N+]([O-])C1C(O)C(O)C([N+](=O)[O-])C(O)C1O` (configuration not stated), the inhibition (as a rule, the relative decrease from the control value, in per cent) is inactive: -7.2%.

With `O=C(NC(Sc1ccncn1)C(Cl)(Cl)Cl)c1ccccc1` (configuration not stated), the inhibition is inactive: -2.1%.

With `Oc1ccccc1CNc1ccccn1`, the inhibition is inactive: 2.5%.

In the case of `Nc1cc(N)c2nonc2c1[N+](=O)[O-]`, the inhibition was inactive: 2.4%.

Consider `CC(C)CC(=O)NC(Sc1ccc(Cl)cc1)C(Cl)(Cl)Cl` (configuration not stated), for which the inhibition was inactive: -2.9%.

On to `CN1CCCC(OC(=O)C(c2ccccc2)c2ccccc2)C1` (configuration not stated), for which the inhibition was inactive: 0.3%.

For `Clc1ccc(Cl)c(NC2=NCC(CBr)S2)c1` (configuration not stated), the inhibition is inactive: -3%.

For `Cc1ccc(OP(=O)(Nc2nccs2)Oc2ccc(C)cc2)cc1`, the inhibition was inactive: -3.2%.

As for `COc1ccccc1OP(=O)(Nc1ccc(C)cn1)Oc1ccccc1OC`, the inhibition was inactive: 2%.

For `Cc1ccc(N/C(=N/P(=O)(N2CCOCC2)N2CCOCC2)N2CCOCC2)cc1`, the inhibition is inactive: -3.1%.

As to `CN(C(=O)Cc1ccc(Cl)c(Cl)c1)[C@H]1CCCC[C@H]1N1CCCC1`, the inhibition was inactive: 0.4%.

Turning to `NC(=O)c1cc([N+](=O)[O-])cc([N+](=O)[O-])c1N`, the inhibition is inactive: -4.3%.

`Nc1cccc2ccc([As](=O)(O)O)cc12`: the inhibition was inactive: 2.6%.

As to `CCN(N=Nc1nonc1N)c1nonc1N`, the inhibition is inactive: 0.4%.

Consider `Cc1ccc(NP(=O)(Oc2ccccc2F)Oc2ccccc2F)nc1`, for which the inhibition is inactive: -12.3%.

Turning to `CN(C(=O)Cc1ccc(Cl)c(Cl)c1)[C@H]1CCCC[C@@H]1N1CCCC1`, the inhibition was inactive: -1.3%.

On to `Cc1cc(SC(NC(=O)c2ccc(F)cc2)C(Cl)(Cl)Cl)ncn1` (configuration not stated), for which the inhibition is inactive: -0.2%.

For the compound `CCOP(=O)(Nc1ccccc1)OCC`, the inhibition is inactive: -2.7%.

As to `O=P(Nc1nc2ccc(Cl)cc2s1)(c1ccccc1)c1ccccc1`, the inhibition was inactive: 1.5%.

Turning to `CN(C)P(=O)(N(C)C)n1c(Nc2ccccc2)nnc1-c1ccccc1`, the inhibition is inactive: -2.3%.

Consider `CCCC1OP(N)(=O)OCC1CC` (configuration not stated), for which the inhibition was inactive: 8.7%.

With `CC(=O)Nc1ccc([As](=O)(O)O)cc1`, the inhibition was inactive: 9.6%.

As for `O=C(O)c1ccccc1[As](=O)(O)O`, the inhibition was inactive: -6%.

Turning to `O=C(O)CNc1ccc([As](=O)(O)O)cc1`, the inhibition is inactive: -2.9%.

Turning to `COC(=O)C1(C)COP(=O)(Nc2ccccc2)OC1` (configuration not stated), the inhibition was inactive: -4.8%.

For `O=[N+]([O-])c1cccc(NC2=NCC(CBr)S2)c1` (configuration not stated), the inhibition was inactive: 2.8%.

`O=[N+]([O-])c1ncn(CCn2ncnc2[N+](=O)[O-])n1`: the inhibition was inactive: -0.9%.

Take `CC(C)(C)C(=O)NC(Sc1ccncn1)C(Cl)(Cl)Cl` (configuration not stated): the inhibition is inactive: -0.8%.

In the case of `O=C(Nc1cc([As](=O)(O)O)ccc1O)c1ccccc1`, the inhibition is inactive: -6.4%.

As for `O=P1(N(CCCl)CCCl)OCCCS1` (configuration not stated), the inhibition was inactive: -1.1%.

Consider `CC1CCN(C(=O)Oc2c(Cl)cc(Cl)c3cccnc23)CC1`, for which the inhibition was inactive: -2.4%.

`c1cc(-c2nn[nH]n2)ccc1-c1nn[nH]n1`: the inhibition was inactive: 6.1%.

For `CN(C)C(=O)OCCc1n(C)cc[n+]1C`, the inhibition is inactive: 3.4%.

On to `CC(C)c1nc(Nc2ccccc2)n(P(=O)(N(C)C)N(C)C)n1`, for which the inhibition is inactive: 6.5%.

As to `CC(C)=N/N=C(\N)N[N+](=O)[O-]`, the inhibition is inactive: -2.4%.

With `CCN(/C(=N/P(=O)(N1CCOCC1)N1CCOCC1)N1CCOCC1)c1ccc(OC)cc1`, the inhibition was inactive: 1.9%.

For the compound `C[N+]1=C2C=CC=CC=C2SC12C([N+](=O)[O-])=CC([N+](=O)[O-])=C[C-]2[N+](=O)[O-]` (configuration not stated), the inhibition is active: 74.8%.

Turning to `Nc1ccc([As](=O)(O)c2ccc(N)cc2)cc1`, the inhibition was inactive: -7%.

As to `CCc1nc2c(n1)c1c(non1O)c1c2no[n+]1[O-]`, the inhibition is inactive: 4.3%.

For the compound `O=[N+]([O-])c1cc([N+](=O)[O-])c(CCNc2ccccc2)c([N+](=O)[O-])c1`, the inhibition was inactive: -2.1%.

As for `Cc1ccc(NP(=O)(Oc2ccccc2)Oc2ccccc2)nc1`, the inhibition is inactive: -1.9%.

Turning to `O=[N+]([O-])c1cccc2n[nH]nc12`, the inhibition was inactive: 3.2%.

As for `CC(=O)N1C2C3N(C(C)=O)C1C1N(C(C)=O)C(C(N1C(C)=O)N3C(C)=O)N2C(C)=O`, the inhibition is inactive: -0.8%.

For `COc1ccc(C2=NCC(CBr)S2)cc1` (configuration not stated), the inhibition was active: 94.1%.

For `c1nnnn1CCn1cnnn1`, the inhibition is inactive: -2.6%.

For the compound `CC(C)C(=O)NC(Sc1ccccc1)C(Cl)(Cl)Cl` (configuration not stated), the inhibition was inactive: -3.2%.

Consider `O=P(Nc1nccs1)(c1ccccc1)c1ccccc1`, for which the inhibition is inactive: -2.4%.

Take `O=C(OC1CN2CCC1CC2)c1cccc(Cl)c1` (configuration not stated): the inhibition is inactive: 3.7%.

Take `C(Cc1nn[nH]n1)Cc1nn[nH]n1`: the inhibition is inactive: 0.3%.

`Nc1ccc([As](=O)(O)c2ccc([N+](=O)[O-])cc2)cc1`: the inhibition was inactive: 0.9%.

As to `O=[As](O)(c1ccccc1)c1ccc(O)cc1`, the inhibition is inactive: 0.8%.

For the compound `O=[N+]([O-])c1ccc(O)c(/C=N/Nc2ccc([N+](=O)[O-])cc2[N+](=O)[O-])c1`, the inhibition was inactive: 9.4%.

Regarding `O=[N+]([O-])c1ncn(CCn2cnc([N+](=O)[O-])n2)n1`, the inhibition was inactive: -0.3%.

With `CC(=O)NC(SC(=S)N(C)C)C(Cl)(Cl)Cl` (configuration not stated), the inhibition was inactive: 3.6%.

`C[C@H]1OP(=O)(Oc2ccccc2)[C@H](O)[C@H](O)[C@H]1N=[N+]=[N-]` (some centres not stated): the inhibition is inactive: 6.3%.

Consider `O=P(Nc1nc2ccccc2s1)(c1ccccc1)c1ccccc1`, for which the inhibition is inactive: 5.3%.

`O=P(Nc1ccccn1)(c1ccc(Br)cc1)c1ccc(Br)cc1`: the inhibition is inactive: -0.7%.

For the compound `CN(C)C1(CNC(=O)c2ccc(Cl)c(S(N)(=O)=O)c2)CCCCC1`, the inhibition is inactive: -4.2%.

Consider `COc1ccc(N)c([N+](=O)[O-])c1[N+](=O)[O-]`, for which the inhibition was inactive: -1.5%.

Consider `Nc1ccc(CCCCOc2ccccc2)cc1`, for which the inhibition was inactive: 1.3%.

As for `O=c1c2cc([N+](=O)[O-])ccc2[nH]c2c([N+](=O)[O-])cc([N+](=O)[O-])cc12`, the inhibition was active: 68.8%.

In the case of `CN(C)C(=O)Oc1noc2ccccc12`, the inhibition was inactive: -4.9%.

Regarding `CC(NC(=O)COC(=O)C(O)(c1ccccc1)c1ccccc1)c1ccccc1` (configuration not stated), the inhibition was inactive: 0.3%.

For `Cc1ccccc1OP(=O)(Nc1ccccn1)Oc1ccccc1C`, the inhibition is inactive: 0.1%.

With `CCC(=O)N1C2C3N(C(=O)CC)C1C1N(C(=O)CC)C(C(N1C(=O)CC)N3C(=O)CC)N2C(=O)CC`, the inhibition is inactive: -0.4%.

As for `O=C(OC1CN2CCC1CC2)c1ccccc1` (configuration not stated), the inhibition was inactive: -14.9%.

Consider `Cc1ccc(OP(=O)(Nc2ccccn2)Oc2ccc(C)cc2)cc1`, for which the inhibition was inactive: -1.3%.

For the compound `CC(=O)NC(SC(=S)N(CC(C)C)CC(C)C)C(Cl)(Cl)Cl` (configuration not stated), the inhibition was inactive: -1.7%.

Take `COC(=O)c1cc2c(s1)N=C(c1ccccc1)N(C)P2(=O)N1CCOCC1` (configuration not stated): the inhibition was inactive: 1%.

`O=P1(N(CCCl)CCCl)OCCC2CCCCN21` (configuration not stated): the inhibition is inactive: 6.8%.

In the case of `Cc1ccc(NP(=O)(Oc2cccc(C)c2)Oc2cccc(C)c2)nc1`, the inhibition is inactive: 5.5%.

As to `c1ccc(-c2nn[nH]n2)c(-c2nn[nH]n2)c1`, the inhibition was inactive: -5.6%.

As to `CCNC(=S)/N=C(\N)N[N+](=O)[O-]`, the inhibition was inactive: -2.7%.

For `O=C(NC1CCS(=O)(=O)C1)NP(=S)(Oc1ccccc1)Oc1ccccc1` (configuration not stated), the inhibition is inactive: 4.9%.

Take `CC(=O)Nc1ccc(Oc2c([N+](=O)[O-])cc([N+](=O)[O-])cc2[N+](=O)[O-])cc1`: the inhibition is inactive: -0.5%.

Take `CC(=O)Nc1ccc([As](=O)(O)O)c(O)c1`: the inhibition was inactive: 0.5%.

As for `C[C@H]1OP(=O)(Oc2ccccc2)C[C@@H]2O[C@@H]21` (some centres not stated), the inhibition was inactive: -3.8%.

As to `C[C@@H]1C=CCP(=O)(Oc2ccccc2)O1` (some centres not stated), the inhibition was inactive: -3.7%.

On to `Cc1ccccc1CN(C)C(=O)COC(=O)C(O)(c1ccccc1)c1ccccc1`, for which the inhibition was inactive: -4.3%.

As for `COC(=O)C1(C)COP(=O)(NCc2ccccc2)OC1` (configuration not stated), the inhibition is inactive: -1.5%.

With `CC(=O)c1ccc(N2CC2c2ccncc2)cc1` (configuration not stated), the inhibition is inactive: 11.6%.

Regarding `N#C/C(=C\c1ccc(N(CCBr)CCBr)cc1)C(N)=O`, the inhibition was inactive: -5.2%.

For the compound `CC(C)(C)C(=O)NC(Sc1ccccc1)C(Cl)(Cl)Cl` (configuration not stated), the inhibition was inactive: -1.4%.

`CCc1cc(O)c([N+](=O)[O-])c(C)c1[N+](=O)[O-]`: the inhibition is inactive: 6.4%.

For `CCOc1ccc(C2=NCC(CBr)S2)cc1` (configuration not stated), the inhibition was inactive: -0.1%.

As for `O=P1(Nc2nc3ccc(Cl)cc3s2)COc2ccccc2O1` (configuration not stated), the inhibition was inactive: -1.9%.

Regarding `CCOP(=O)(Nc1cccc2ccccc12)OCC`, the inhibition was inactive: 9%.

In the case of `COc1cc(C2NCCC3(OCCO3)C2(C)C)cc(OC)c1OC` (configuration not stated), the inhibition is inactive: 7.1%.

`Nc1cccc2c([As](=O)(O)O)cccc12`: the inhibition is inactive: -6.9%.

With `Cc1ccc(NCCc2c([N+](=O)[O-])cc([N+](=O)[O-])cc2[N+](=O)[O-])cc1`, the inhibition is inactive: 23.6%.

Consider `CCCOP(=S)(Nc1nc(N)cc(=O)[nH]1)OCCC`, for which the inhibition was inactive: -5.1%.

For `Cc1cccc(OCC(=O)OC2CN3CCC2CC3)c1` (configuration not stated), the inhibition is inactive: -2.8%.

In the case of `O=[As](O)(c1cccc(O)c1)c1cccc(O)c1`, the inhibition is inactive: 0.7%.

Consider `O=C(OC1CN2CCC1CC2)c1ccc(Cl)cc1` (configuration not stated), for which the inhibition is inactive: 1.6%.

For `CS(=O)(=O)c1ccc(Cl)c(NC(=O)COC(=O)C(O)(c2ccccc2)c2ccccc2)c1`, the inhibition was inactive: -2.2%.

For the compound `O=[As](O)(O)c1cccnc1`, the inhibition is inactive: 1.4%.

As for `COc1cc(C(=O)NCC2(N3CCOCC3)CCCCC2)cc(Cl)c1OC(C)C`, the inhibition was inactive: -0.9%.

Consider `CN(C(=O)Cc1ccccc1)[C@@H]1CC[C@]2(CCCO2)C[C@H]1N1CCCC1`, for which the inhibition is inactive: 3%.

For the compound `CCOP1(=S)c2c(C)nn(CCC#N)c2N=C(c2ccc(F)cc2)N1C` (configuration not stated), the inhibition was inactive: 1.3%.

For `N#CCCN(C(=O)COC(=O)C(O)(c1ccccc1)c1ccccc1)c1ccc(F)cc1`, the inhibition is inactive: 3.9%.

Turning to `CN(C(=O)Cc1ccc(Cl)c(Cl)c1)[C@H]1CC[C@@]2(CCCO2)C[C@@H]1N1CCCC1`, the inhibition was inactive: -1.1%.

Consider `O=[N+]([O-])c1ccc2c(c1)nnn2O`, for which the inhibition was inactive: -0.7%.

The values above are taken from PubChem BioAssay AID651702 (NMMLSC, 2012).
